In patent US8674113B2, “Compounds” (Boehringer Ingelheim International GmbH, priority 2010, dated 2014):
pIC50: −log10 of the molar value.

By UniProt entry, the sequences of proteins in these tests, tags left out. Where a name states a change or a piece, a line headed by the entry shows the natural chain unless it says otherwise.
UniProt O14684: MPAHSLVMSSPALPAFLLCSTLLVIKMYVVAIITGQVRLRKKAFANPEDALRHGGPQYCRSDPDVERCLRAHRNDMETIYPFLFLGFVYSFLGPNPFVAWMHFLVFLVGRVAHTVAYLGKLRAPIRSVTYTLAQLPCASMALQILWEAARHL

Columns and labels:
[1] = biological target: recombinant human mPGES-1 (Homo sapiens (Human), UniProt O14684); test: mPGES-1 enzyme assay (HTRF detection of PGE2); format: biochemical; conditions: recombinant human mPGES-1 microsomes, PGH2 2 μM, 60 seconds; read-out: mPGES-1 inhibitory effect IC50 in the enzyme assay
Method: Microsomes from Rosetta E. coli bacteria expressing recombinant human mPGES-1 can be derived as described below:
Inoculate 5 ml LB with Ampicilin (50 μg/ml) and Chloramphenicol (34 μg/ml) with bacteria from freeze culture. Incubate 8 h at 37° C. with 200 rpm. Thereafter, inoculate 500-1000 ml LB containing Amp and Chloro with the 5 ml on culture and grow to OD640 of 0.8-1.0. Chill the culture to +4° C. before induction. Induce the culture with IPTG at a final concentration of 400 μM. Express the protein at room temp 18-23° C. with 200 rpm shaking over night.
The following steps can be performed on the following day: • 1. […]
47 μl of recombinant human mPGES-1 (˜0.5 μg protein/well) containing microsomal suspension in a buffer containing GSH, (2.5 mmol/L L-Glutathione reduced, dissolved in 0.1 mol/L Phosphat Buffer pH 7.4) is dispensed in a 384-well plate and thereafter 1 μl of the test compound(s) is/are added and incubated for 25 minutes at room temperature. […] In order to quantify the amount of PGE2 that has been formed, a homogenous time resolved fluorescent (HTRF) detecting of PGE2 has been performed using a commercially available kit from Cisbio according to the manufactures recommendation. […] After an incubation period of the plates over night, the fluorescence is measured by the use of an appropriate microplate reader. […]

mPGES-1 in A549 cells = mPGES-1 in A549 cells (Homo sapiens (Human), UniProt O14684); test: A549 cell-based assay (PGE2 formation, 50% human serum); conditions: IL-1β 5 ng/ml, 10 nM arachidonic acid, 20-24 h, read-out: mPGES-1 inhibitory effect IC50 in the cell assay
Method: Although the enzymatic assay is a high throughput assay the disadvantage is that it uses a recombinant protein which is not in its natural environment. Accordingly a cellular assay was established in which a cell line of human origin (A549) expressing the mPGES-1 protein was used. In addition in order to mimic the situation in humans in which compounds can be bound to plasma proteins 50% human serum is added in the assay. By having the combination of testing mPGES-1 in a cellular environment and the presence of 50% human serum this assay has a higher relevance to judge the therapeutic potential of a mPGES-inhibitor than the pure enzyme assay.
A549 cells (ATCC: CCL-185) are grown to about 90% confluence in F-12K Nutrient Mixture (Kaighn's Mod. Gibco) containing 10% FBS in a humified incubator at 37° C. and 5% CO2. Cells were detached using Trypsin-EDTA. A549 cells were seeded in a 384-well collagene plate at a density of 7000 cells/well (50 μl) in F-12 medium containing 1% Penicillin-Streptomycin and 50% human serum. The cells were allowed to attach for 3-4 h. […]
Concentrations of PGE2 in the cell free medium (10 μl) were measured using a commercially available HTRF kit from Cisbio (as described above). […]

Cn1c(Nc2c(Cl)ccc(CNC(=O)C(C)(C)C)c2Cl)nc2cc(C(=O)N[C@H]3CC[C@H](C(F)(F)F)CC3)c(N3CC(F)C3)cc21 [Example 97]
pIC50 [1]: 8.52 | pIC50 (mPGES-1 in A549 cells): 8.52
